Data taken from article PMC5040251, “The Structure of Treponema pallidum Tp0751 (Pallilysin) Reveals a Non-canonical Lipocalin Fold That Mediates Adhesion to Extracellular Matrix Components and Interactions with Host Cells” (PLoS Pathogens, 2016).

Target: fibronectin
Test: Dose-dependent binding assay to immobilized fibronectin
Settings: plate binding to immobilized human plasma fibronectin; peptides serially diluted 1:2 from 40 to 0.625; absorbance 600 nm, three wells, representative of two independent experiments; non-linear regression, GraphPad Prism; read-out: Apparent Kd (Fn)
Procedure: Fig 3 Tp0751 lipocalin derived peptides directly bind host proteins. (A) Thirteen overlapping Tp0751 synthetic 24-mer peptides were evaluated for binding to immobilized fibrinogen, fibronectin, collagen type I, and collagen type IV. Average absorbance readings (600 nm) from three wells are presented with bars indicating standard error and the results are representative of two independent experiments. […] Average absorbance readings (600 nm) from three wells are presented with bars indicating standard error and the results are representative of two independent experiments. […] The strand colored in cyan reflects the overlap of p10 and p11. […]
To test for binding of synthetic Tp0751 peptides p1-p13, p1scr, p6scr, p10scr1, and p10scr2 to the host proteins fibrinogen, fibronectin, laminin, collagen type I, and collagen type IV, initial binding assays were performed as described previously. […] Average absorbance readings (600 nm) from three wells are presented with bars indicating standard error and the results are representative of two independent experiments. Plates were read at 600 nm with a BioTek enzyme-linked immunosorbent assay plate reader (Fisher Scientific, Ottawa, ON). […] Non-linear regression curves were fitted and apparent dissociation constants (K d) were calculated using GraphPad Prism data analysis software (San Diego, CA).

`CC[C@H](C)[C@H](NC(=O)[C@H](CCCNC(=N)N)NC(=O)[C@@H](NC(=O)[C@H](CO)NC(=O)[C@H](CC(C)C)NC(=O)[C@H](CCCNC(=N)N)NC(=O)[C@@H](NC(=O)[C@@H](NC(=O)[C@H](CO)NC(=O)[C@@H](NC(=O)[C@H](CCCNC(=N)N)NC(=O)[C@H](Cc1ccccc1)NC(=O)[C@H](CC(C)C)NC(=O)[C@@H](NC(=O)[C@@H](NC(=O)[C@H](CCCNC(=N)N)NC(=O)[C@H](CO)NC(=O)[C@H](CCCCN)NC(=O)[C@H](CC(N)=O)NC(=O)[C@H](Cc1ccccc1)NC(=O)[C@H](CCC(=O)O)NC(=O)[C@H](CCCNC(=N)N)NC(=O)[C@H](C)NC(=O)[C@@H](NC(=O)[C@H](Cc1c[nH]cn1)NC(=O)[C@H](Cc1c[nH]cn1)NC(=O)[C@H](Cc1c[nH]cn1)NC(=O)[C@H](Cc1c[nH]cn1)NC(=O)[C@H](Cc1c[nH]cn1)NC(=O)[C@@H](N)Cc1c[nH]cn1)C(C)C)[C@@H](C)O)[C@@H](C)CC)[C@@H](C)O)C(C)C)[C@@H](C)O)[C@@H](C)O)C(=O)O` [p10scr2] was tested, and the Kd was 7.9 ± 0.7 µM.
